Measurements as given in PubChem BioAssay AID2546 (National Center for Advancing Translational Sciences (NCATS), 2010).
This is a selection; strong and weak results do not stand in their true shares. Inconclusive results are not listed. Activity calls are given as the source filed them. Calls follow the shape of the dose curve; as a rule, active = well fitted inhibition curve with a large enough effect; inconclusive = small, poorly fitted or top-dose-only effect, or effect the other way; inactive = flat fitted curve, though single readings scatter.

assay: VP16 counterscreen qHTS for inhibitors of ROR gamma transcriptional activity; details: Drosophila S2 Gal4-VP16 UAS-luciferase, luminescence, 20 h; at 53.6 µM (top of the series);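 also: Gal4-VP16 expression switched on by copper sulfate through the metallothionein promoter; nearly all actives have a fitted effect of over 50% in size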
% is scaled to controls: 0 for no effect and ±100 for the full control effect.

With `O=[N+]([O-])c1cc([N+](=O)[O-])c(CCN2CCOCC2)c([N+](=O)[O-])c1` as the compound, how does the activity, negative = inhibition read?
The activity, negative = inhibition was inactive: -8.28%.
